Ab-14 heavy chain CDR variants: yeast mating affinities

From the AlphaSeq antibody data of Li et al. 2023 (doi:10.1038/s41467-023-39022-2), copy in the FLAb collection.

Target: peptide PDVDLGDISGINAS, taken from heptad repeat 2 (HR2) of SARS-CoV-2 spike.

Each scFv is VH, a (GGGGS)3 linker, VL, as in the parent Ab-14, and differs from it in the CDRs of the heavy chain only.
VH: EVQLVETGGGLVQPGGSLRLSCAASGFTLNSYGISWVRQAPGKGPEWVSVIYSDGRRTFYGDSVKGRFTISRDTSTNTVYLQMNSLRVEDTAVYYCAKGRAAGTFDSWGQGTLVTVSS
VL: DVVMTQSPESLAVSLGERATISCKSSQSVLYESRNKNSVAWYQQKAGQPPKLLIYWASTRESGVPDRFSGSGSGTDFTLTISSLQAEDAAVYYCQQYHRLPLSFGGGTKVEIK

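The parent was found by panning a naive human phage display library on the peptide. This is the validation round: designs drawn from the data on random variants, tested in the same kind of assay. Group labels follow the data file (Ctrl: baseline library sampled from a position-specific scoring matrix, with some repeated check sequences; Rand: our label for a block that the file lists under HC and that is probably the random mutants of the ten best first-round binders; GP: Gaussian process model; GPLM: also part of the Gaussian process libraries; HC: hill climbing; Gen: genetic algorithm; Gibbs: Gibbs sampling; a sequence that several methods proposed may carry one label only). The scFvs were displayed on barcoded MATa yeast, the peptide on MATalpha yeast. After mating in shaken culture at 30 °C for 16 h, diploids were selected and their barcode pairs sequenced. Scores were corrected for input abundance and mapped to Kd with protein pairs of known affinity run in the same pool. Mating was done six times.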

Positions count from residue 1 of the parent VH; G26T puts T in place of G.
Variants here have at most six changes.
Numbers give log10(Kd / nM), so 0 is 1 nM and 3 is 1 µM. Smaller is tighter.
Averages over replicates are reported, and they cover detected replicates only.
"nd" means that the variant was in the library but no mating with the target was seen in any replicate; the authors take this as a sign of poor binding, and no number exists.

For G26T G61R T104R S107L [Ctrl], the assay gave 2.29 (1 of 6 replicates). Variant T28D G61E R100Q A101T [GP_Gibbs] showed 0.47 (6 of 6 replicates). For F27D A101P D106K [Ctrl], the assay gave nd (0 of 6 replicates). With T28N F59M A101N [GP_Gen] the result was 1.31 (6 of 6 replicates). Variant F27E S31D [Ctrl] showed 1.67 (4 of 6 replicates). With T28D G61C A101M [GP_Gen] the result was 1.07 (6 of 6 replicates).

Variant T28N G61A S63N A101T [GPLM_Gibbs] gave 0.47 (6 of 6 replicates). Variant G26K F59Q [Ctrl] gave 1.23 (1 of 6 replicates). With T28S G61I R100Q A101T [GPLM_Gen] the result was 0.83 (6 of 6 replicates). Variant S31Q I51H G61S T104F [Rand] gave nd (0 of 6 replicates). Variant F59A G61L A101G F105A [Ctrl] showed 2.59 (1 of 6 replicates). For R100Y A101G A102S [Ctrl], the assay gave 3.55 (1 of 30 replicates).

With I34V A102V [Ctrl] the result was nd (0 of 6 replicates). Variant T28E S31E R100H S107K [GP_Gen] showed 0.09 (6 of 6 replicates). For T28E G61T A101E [GPLM_HC], the assay gave -0.25 (6 of 6 replicates). Variant S53H R56H Y60E G61S A102G D106S [Rand] gave 2.92 (1 of 6 replicates). For T28E F59A S63N A101N [GP_Gibbs], the assay gave 0.33 (6 of 6 replicates). Variant F27N I34M R56H G99Q R100Q [Ctrl] gave nd (0 of 6 replicates).

With S31Q G61S V64I T104F [Rand] the result was nd (0 of 6 replicates). Variant R56K G61S R100E [GPLM_Gen] showed 0.81 (6 of 6 replicates). For G61K A101L [Ctrl], the assay gave 0.97 (2 of 6 replicates). Variant S31M A101N F105A [Ctrl] showed nd (0 of 6 replicates). For F27N D62G S63K R100L [Ctrl], the assay gave nd (0 of 6 replicates). For G61A R100K S107K [GPLM_Gibbs], the assay gave 1.03 (5 of 6 replicates).

With G26K T28S G61A A101M [GP_Gen] the result was 1.81 (6 of 6 replicates). Variant S31R G61S R100E S107K [GP_HC] gave 1.92 (5 of 6 replicates). Variant S31E R56S G61T A101L [GPLM_HC] gave 0.79 (6 of 6 replicates). For T28D A101E S107T [GPLM_Gen], the assay gave 0.14 (6 of 6 replicates). Variant T28D G61I R100K A101I [GP_Gibbs] gave 0.69 (5 of 6 replicates). Variant G26M T28D R56K A101Q [GP_Gen] showed 1.53 (5 of 6 replicates).

Variant T58N G99R T104R [Ctrl] showed nd (0 of 6 replicates). For T28D S63D T104H D106W [GP_HC], the assay gave 0.63 (4 of 6 replicates). With T58F G99S R100S A101V S107D [Ctrl] the result was nd (0 of 6 replicates). Variant G61S R100K A102G S107V [GP_HC] showed 1.62 (5 of 6 replicates). For S31D R56F F105A [Ctrl], the assay gave nd (0 of 6 replicates). Variant T28S S31E G61S [GPLM_Gen] gave -0.41 (6 of 6 replicates).

With T28Q S31E S63Q A101N [GP_Gen] the result was nd (0 of 6 replicates). For N30L G61M K65E R100S [Ctrl], the assay gave 1.12 (1 of 6 replicates). With T28S G61A R100K S107L [GPLM_Gen] the result was 0.36 (1 of 6 replicates). For T28S S63A A101T D106W [GP_Gibbs], the assay gave nd (0 of 6 replicates). For T28S A101E S107Q [GP_Gen], the assay gave -0.17 (6 of 6 replicates). For T28E S31M A101N [GP_Gen], the assay gave 0.51 (6 of 6 replicates).

With T28I G61D R100Q A101V [GP_HC] the result was 0.85 (6 of 6 replicates). Variant R56K G61A R100K [GPLM_Gibbs] gave 1.20 (5 of 6 replicates). Variant T28W S31E G61T [GP_HC] showed 0.91 (6 of 6 replicates). Variant N30D A101T S107T [GPLM_Gen] gave 0.42 (6 of 6 replicates). Variant T28N G61Q S63R R100Q A101V [GP_Gibbs] showed 1.55 (6 of 6 replicates). Variant N30D S53A D106W [GP_HC] showed nd (0 of 6 replicates).

Variant G26S G61S R100E [GPLM_Gen] gave 0.99 (1 of 6 replicates). With G61H S63A R100G [Ctrl] the result was 1.22 (1 of 6 replicates). Variant G99R A101L [Ctrl] showed nd (0 of 6 replicates).

The 4 strongest on average among those seen in every replicate, once more:

T28S S31E G61S [GPLM_Gen]: -0.41 (6 of 6 replicates).
T28E G61T A101E [GPLM_HC]: -0.25 (6 of 6 replicates).
T28S A101E S107Q [GP_Gen]: -0.17 (6 of 6 replicates).
T28E S31E R100H S107K [GP_Gen]: 0.09 (6 of 6 replicates).

Empty control strains, which show no peptide, gave a signal in 1% of pairings with all heavy chain designs; the median was 2.08 and 95% of these signals were weaker than 0.84. No background was subtracted.
A sequence that the file lists under several names has all its replicates pooled.
In the paper, a design with two or fewer of six values counts as a poor binder.
Values of this round are not directly comparable with the first-round values of the same sequences.